Source: publication PMC5469413 (Journal of immunology (Baltimore, Md. : 1950), 2017)

B1: hIFN-β: recombinant whole human IFN-β (PBL Interferon), from E. coli or CHO sources (protein, UniProt P01574 22-187, looked up)
Interferon beta: MSYNLLGFLQRSSNFQCQKLLWQLNGRLEYCLKDRMNFDIPEEIKQLQQFQKEDAALTIYEMLQNIFAIFRQDSSSTGWNETIVENLLANVYHQINHLKTVLEEKLEKEDFTRGKLMSSLHLKRYYGRILHYLKAKEYSHCAWTIVRVEILRNFYFINRLTGYLRN
B2: hIFN-β produced in E. coli: recombinant hIFN-β produced in a bacterial (E. coli) expression system (protein, UniProt P01574 22-187, looked up)
Interferon beta: B1 Interferon beta
B3: hIFN-β produced in CHO cells: recombinant hIFN-β produced in a mammalian cell expression system (CHO cells) (protein, UniProt P01574 22-187, looked up)
Interferon beta: B1 Interferon beta

Key:
[1] = system: Staphylococcus aureus; experiment: Bacterial killing assay with recombinant whole IFN-β; format: cell-based; conditions: same concentration of 5×10^2 units/ml, 3 hours, CFU
[2] = system: S. aureus; experiment: pH-specific killing assay with recombinant whole human IFN-β; format: cell-based, Staphylococcus aureus; conditions: hIFN-β produced in E. coli or CHO cells, neutral and low pH, 3 hours, % surviving bacteria based on initial CFU

| Molecule | killing of S. aureus, human versus mouse IFN-β [1] | killing activity against S. aureus by expression source [2] |
| --- | --- | --- |
| B1 | did not kill bacteria as well as mIFN-β | – |
| B2 | – | had killing activity at acidic pH |
| B3 | – | had killing activity at acidic pH |
